Experiments:
Experiment in all cases: whole-cell patch clamp, Hill fit
Format in all cases: cell-based
[1] = target: α2β heteromeric GlyR (α2β GlyR) (Homo sapiens, UniProt P23416+P48167, P23416:DEL344-408/P48167:DEL23-35/P48167:DEL356-399)
[2] = target: α2β heteromeric GlyR (α2β GlyR) (Homo sapiens, UniProt P23416+P48167, P23416:DEL344-408/P48167:DEL356-399/P48167:K23D/P48167:K25D/P48167:K28D/P48167:K29D/P48167:K31D/P48167:K33D/P48167:K34D/P48167:K35D)
[3] = target: α2β heteromeric GlyR (α2β GlyR) (Homo sapiens, UniProt P23416+P48167, P23416:DEL344-408/P48167:DEL356-399)

Sequences of proteins named here, by UniProt entry; tags and fusion partners are left off. Residues count along the entry.
UniProt P23416, 28-343, stated change not applied: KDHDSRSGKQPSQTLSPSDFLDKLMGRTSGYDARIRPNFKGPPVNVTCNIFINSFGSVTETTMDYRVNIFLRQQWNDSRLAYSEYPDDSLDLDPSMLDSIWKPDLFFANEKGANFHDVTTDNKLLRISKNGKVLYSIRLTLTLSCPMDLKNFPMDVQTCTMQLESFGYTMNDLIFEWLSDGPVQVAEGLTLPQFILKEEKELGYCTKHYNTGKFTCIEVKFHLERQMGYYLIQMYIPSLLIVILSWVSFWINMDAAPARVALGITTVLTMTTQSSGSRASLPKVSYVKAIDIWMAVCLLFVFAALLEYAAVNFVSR
UniProt P23416, 409-452, stated change not applied: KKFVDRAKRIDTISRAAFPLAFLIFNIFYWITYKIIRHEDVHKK
UniProt P48167, 36-355, stated change not applied: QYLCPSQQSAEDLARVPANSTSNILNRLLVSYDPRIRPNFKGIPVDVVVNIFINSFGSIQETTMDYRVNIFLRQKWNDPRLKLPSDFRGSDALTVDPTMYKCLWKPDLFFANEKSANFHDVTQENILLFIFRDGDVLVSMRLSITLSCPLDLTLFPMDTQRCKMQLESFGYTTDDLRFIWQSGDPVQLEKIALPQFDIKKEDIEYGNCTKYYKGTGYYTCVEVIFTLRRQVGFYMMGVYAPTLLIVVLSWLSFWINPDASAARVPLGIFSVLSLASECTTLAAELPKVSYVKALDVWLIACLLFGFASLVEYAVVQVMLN
UniProt P48167, 400-497, stated change not applied: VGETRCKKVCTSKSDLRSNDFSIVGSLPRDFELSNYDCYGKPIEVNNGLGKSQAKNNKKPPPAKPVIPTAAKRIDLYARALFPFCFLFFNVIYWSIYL
UniProt P48167, 23-355 K23D/K25D/K28D/K29D/K31D/K33D/K34D/K35D: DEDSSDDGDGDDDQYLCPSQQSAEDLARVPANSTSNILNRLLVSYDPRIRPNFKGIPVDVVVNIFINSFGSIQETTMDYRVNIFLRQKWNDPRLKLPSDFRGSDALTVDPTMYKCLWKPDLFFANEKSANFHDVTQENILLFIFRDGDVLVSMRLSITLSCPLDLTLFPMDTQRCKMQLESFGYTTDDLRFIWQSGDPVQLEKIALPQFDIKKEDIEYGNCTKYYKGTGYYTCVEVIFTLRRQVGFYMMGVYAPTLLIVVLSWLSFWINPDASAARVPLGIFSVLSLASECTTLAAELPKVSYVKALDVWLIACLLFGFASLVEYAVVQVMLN
UniProt P48167, 23-355, stated change not applied: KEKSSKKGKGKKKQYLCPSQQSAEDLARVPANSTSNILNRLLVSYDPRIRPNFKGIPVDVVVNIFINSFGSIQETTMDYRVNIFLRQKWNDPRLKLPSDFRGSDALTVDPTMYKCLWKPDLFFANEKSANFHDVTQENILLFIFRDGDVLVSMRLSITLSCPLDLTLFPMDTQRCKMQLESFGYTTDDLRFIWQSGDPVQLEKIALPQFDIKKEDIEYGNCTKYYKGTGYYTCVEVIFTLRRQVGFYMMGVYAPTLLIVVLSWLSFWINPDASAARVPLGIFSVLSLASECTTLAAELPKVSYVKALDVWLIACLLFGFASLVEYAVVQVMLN

- EC50 [1]: 59 ± 3 µM
- EC50 [2]: 51 ± 3 µM
- EC50 [3]: 60 ± 3 µM
Compound: NCC(=O)O [glycine]
